The source of these data is PubChem BioAssay AID1385 (PCMD, 2008).

By UniProt entry, the sequences of proteins in these tests, tags left out.
UniProt Q06609, whole entry: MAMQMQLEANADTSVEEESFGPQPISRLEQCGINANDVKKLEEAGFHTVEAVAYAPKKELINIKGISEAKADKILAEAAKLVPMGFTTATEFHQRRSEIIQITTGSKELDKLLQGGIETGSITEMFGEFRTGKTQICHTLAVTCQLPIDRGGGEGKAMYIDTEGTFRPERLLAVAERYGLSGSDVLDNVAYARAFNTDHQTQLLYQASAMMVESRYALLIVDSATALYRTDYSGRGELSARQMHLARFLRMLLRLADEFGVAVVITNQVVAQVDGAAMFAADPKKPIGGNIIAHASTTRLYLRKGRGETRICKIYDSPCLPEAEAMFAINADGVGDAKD

Each structure is given as a SMILES string. This is a selection; strong and weak results do not stand in their true shares. Some salts and complexes are drawn in separate pieces, as the source files them; their charges need not balance. Activity calls are given as the source filed them.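 How the source made its calls: active means inhibition above 40% at the single screening dose; inactive means the rest.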

This assay addresses DNA repair protein RAD51 homolog 1 (Homo sapiens) (UniProt Q06609). Kind of assay: human RAD51 strand exchange inhibitors, primary screen, biochemical, fluorescence (AID 1385).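 Further: 0% = DMSO control wells and 100% = blanks with heterologous ssDNA.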 As to conditions: hRad51 DNA strand exchange, fluorescence dequenching; at 10 µM; active compounds read high.
On to `CC(C)c1ccc(OP(C)(=O)Nc2ccc(SC(F)(F)F)cc2)cc1` (configuration not stated), for which the inhibition was inactive: 0.87%.
With `CP(=O)(Nc1ccccc1F)Oc1ccccc1` (configuration not stated) the figure was inactive: -0.17%; with `COc1ccc2c(c1O)-c1c(O)c(OC)cc3c1[C@H](C2)[N+](C)(C)CC3.O=[N+]([O-])c1cc([N+](=O)[O-])c([O-])c([N+](=O)[O-])c1[O-]`, inactive: -0.58%; with `O=C(OC1CN2CCC1CC2)c1ccc([N+](=O)[O-])cc1` (configuration not stated), inactive: -6.24%.
For `COc1ccc(OP(C)(=O)Nc2ccc(SC(F)(F)F)cc2)cc1` (configuration not stated), the inhibition was inactive: 0.14%.
On to `CCCCCOc1ccc(NP(C)(=O)Oc2ccc(Cl)cc2Cl)cc1` (configuration not stated), for which the inhibition was inactive: -15.7%.
With `CP(=O)(Nc1ccccc1)Oc1ccc(F)cc1` (configuration not stated), the inhibition is inactive: -1.81%.
On to `CCN(CC)CCCOC(=O)C(O)(c1ccccc1)C1CCCCC1` (configuration not stated), for which the inhibition was inactive: -9%.
`CN(C)CCOC(=O)C(O)(c1ccccc1)C1CCCCC1` (configuration not stated): the inhibition is inactive: -1.15%.
For the molecule `COc1ccc(OP(C)(=O)Nc2cccc(Br)c2)cc1` (configuration not stated), the inhibition is inactive: 5.86%.
With `O=[N+]([O-])c1cc([N+](=O)[O-])c(NCC2CCS(=O)(=O)C2)c([N+](=O)[O-])c1` (configuration not stated) the figure was inactive: 5.67%; with `Cc1cc(-c2cccc3ccccc23)c(C)cn1.O=[N+]([O-])c1cc([N+](=O)[O-])c(O)c([N+](=O)[O-])c1`, inactive: 5.08%; with `O=[N+]([O-])c1ccc(OP2(=O)COCCO2)cc1` (configuration not stated), inactive: -3.46%.
The result for `CCOP(C)(=S)SCC(=O)NC(C)(CC)C(=O)O` (configuration not stated) reads inactive: -0.52%.
Take `CP(=O)(Nc1ccc(SC(F)(F)F)cc1)Oc1ccc(F)cc1` (configuration not stated): the inhibition is inactive: -0.63%.
For the molecule `Cc1ccccc1NP(C)(=O)Nc1ccccc1C`, the inhibition was inactive: 2.01%.
Take `CP(=O)(Nc1ccc2c(c1)OCCO2)Oc1ccccc1` (configuration not stated): the inhibition is inactive: -1.06%.
With `CP(=O)(Oc1ccccc1)N1CCOC1=O` (configuration not stated), the inhibition is inactive: 4.33%.
As for `CCc1ccc(OP(C)(=O)Nc2cccnc2)cc1` (configuration not stated), the inhibition was inactive: 3.13%.
With `COc1ccccc1OP(C)(=O)Nc1c(C)n(C)n(-c2ccccc2)c1=O` (configuration not stated), the inhibition is inactive: -9.14%.
As for `O=C(OCCCN1CCCC1)C(O)(c1ccccc1)C1CCCCC1` (configuration not stated), the inhibition is inactive: -21.7%.
The result for `CCN(CC)CC(O)COC(=O)C(O)(c1ccccc1)C1CCCCC1` (configuration not stated) reads inactive: 3.83%.
Regarding `COc1ccc(OP(C)(=O)Nc2ccc(Br)cc2)cc1` (configuration not stated), the inhibition was inactive: -2.51%.
With `CN(C)C(=O)c1c([N+](=O)[O-])cc([N+](=O)[O-])cc1[N+](=O)[O-]`, the inhibition is inactive: 7.49%.
As to `CP(=O)(Nc1ccc(Cl)cc1)Oc1ccc(F)cc1` (configuration not stated), the inhibition is inactive: -2.93%.
With `COc1ccccc1OP(C)(=O)Nc1ccccc1Br` (configuration not stated) the figure was inactive: 2.81%; with `CC(C)(C)c1ccc(OP(C)(=O)O)cc1`, inactive: -1.14%.
Turning to `CP(=O)(OC12CC3CC(CC(C3)C1)C2)OC12CC3CC(CC(C3)C1)C2`, the inhibition is inactive: 3.83%.
Consider `CCOC(=O)c1ccc(NP(C)(=O)Oc2ccc(Cl)cc2)cc1` (configuration not stated), for which the inhibition was inactive: -31.1%.
On to `COc1ccc(OP(C)(=O)Nc2ccccc2Br)cc1` (configuration not stated), for which the inhibition was inactive: 5.95%.
As for `COc1ccccc1OP(C)(=O)Nc1ccc(C)c(C)c1` (configuration not stated), the inhibition was inactive: -1.26%.
As for `Cc1cc(C)cc(OP(C)(=O)Nc2cccc(C(F)(F)F)c2)c1` (configuration not stated), the inhibition was inactive: 3.09%.
For the molecule `CP(=O)(Nc1ccc(Cl)cc1Cl)Oc1ccccc1` (configuration not stated), the inhibition is inactive: -7.49%.
On to `CP(=O)(OCCOc1ccccc1)OCCOc1ccccc1`, for which the inhibition is inactive: 1.96%.
Regarding `Cc1nc2ccc3ccccc3c2o1.O=[N+]([O-])c1cc([N+](=O)[O-])c(O)c([N+](=O)[O-])c1`, the inhibition was inactive: 4.42%.
`CN(C)CCOC(=O)C(O)(c1ccccc1)C1CCCC1` (configuration not stated): the inhibition was inactive: -1.31%.
As for `COc1ccc(OP(C)(=O)Nc2ccccn2)cc1` (configuration not stated), the inhibition is inactive: 2.09%.
With `COc1ccccc1OP(C)(=O)Nc1ccc(Br)cc1` (configuration not stated) the figure was inactive: 2%; with `CCc1ccc(OP(C)(=O)O)cc1`, inactive: -2.91%; with `CP(=O)(Nc1ccccn1)Oc1ccccc1` (configuration not stated), inactive: 1.54%.
Turning to `COc1ccccc1OP(C)(=O)Nc1ccc(C)cc1C` (configuration not stated), the inhibition was inactive: -2.01%.
In the case of `Cc1c(NP(C)(=O)Oc2ccc(C(C)C)cc2)c(=O)n(-c2ccccc2)n1C` (configuration not stated), the inhibition was inactive: -1.39%.
`O=[N+]([O-])c1cc([N+](=O)[O-])c(Nc2ccccn2)c([N+](=O)[O-])c1`: the inhibition was inactive: -1.78%.
With `CCN(CC)CCCOC(=O)C(O)(c1ccccc1)c1ccccc1` the figure was inactive: 0.87%; with `CC(C)(C)c1ccc(OP(C)(=O)Nc2ccc(SC(F)(F)F)cc2)cc1` (configuration not stated), inactive: -18.6%.
Turning to `Cc1cccc(C)c1OP(C)(N)=O` (configuration not stated), the inhibition was inactive: 2.78%.
With `O=[N+]([O-])c1ccc2c(c1)C=Nc1ccccc1O2` the figure was inactive: 15.7%; with `COc1ccccc1OP(C)(=O)Nc1cc(Cl)ccc1C` (configuration not stated), inactive: 2.59%; with `Cc1cc(C)cc(OP(C)(N)=O)c1` (configuration not stated), inactive: -0.71%.
The result for `CCOC(=O)c1ccc(NP(C)(=O)Oc2ccccc2)cc1` (configuration not stated) reads inactive: 17.7%; that for `COc1ccccc1OP(C)(=O)Nc1ccc(C)cc1` (configuration not stated), inactive: 1.59%; that for `COc1ccccc1OP(C)(=O)Nc1ccccc1` (configuration not stated), inactive: 11.8%.
On to `CP(=S)(Nn1cnnc1)Oc1ccccc1` (configuration not stated), for which the inhibition was inactive: 5.63%.
Take `CP(=O)(NC(=O)Nc1ccccc1)Oc1ccccc1` (configuration not stated): the inhibition is inactive: 7.36%.
With `CCc1ccc(OP(C)(=O)N2CCN(c3ccc([N+](=O)[O-])cc3)CC2)cc1` (configuration not stated) the figure was inactive: 1.68%; with `Cc1cc(C)cc(OP(C)(=O)Nc2ccc(SC(F)(F)F)cc2)c1` (configuration not stated), inactive: -3%; with `Cc1cccc(C)c1OP(C)(=O)Nc1ccc(SC(F)(F)F)cc1` (configuration not stated), inactive: 3.54%.
With `CP(=O)(Nc1ccc(SC(F)(F)F)cc1)Oc1ccc(Cl)cc1` (configuration not stated), the inhibition is inactive: 20.9%.
With `CP(=O)(Oc1ccccc1)OC(c1ccccc1)C(F)(F)F` (configuration not stated), the inhibition was inactive: 1.27%.
On to `CP(=O)(Nc1ccccn1)Oc1ccc(Cl)cc1` (configuration not stated), for which the inhibition is inactive: 4.97%.
Consider `CCOP(C)(=S)SCC(=O)NC(C)C(=O)O` (configuration not stated), for which the inhibition was inactive: -5.76%.
As for `CCOC(=O)c1ccc(NP(C)(=O)Oc2ccc(OC)cc2)cc1` (configuration not stated), the inhibition was inactive: -1.22%.
As for `O=[N+]([O-])c1cc([N+](=O)[O-])c(-n2nnc3ccccc32)c([N+](=O)[O-])c1`, the inhibition was inactive: -10.7%.
Take `Cc1nc2ccc3ccccc3c2s1.O=[N+]([O-])c1cc([N+](=O)[O-])c(O)c([N+](=O)[O-])c1`: the inhibition was inactive: 0.43%.
For `CCOC(=O)C(CC)C1=NC(C)(C)Cc2ccccc21.O=[N+]([O-])c1cc([N+](=O)[O-])c(O)c([N+](=O)[O-])c1` (configuration not stated), the inhibition was inactive: 18.4%.
The result for `CCCOc1ccc(NP(C)(=O)Oc2ccc(Cl)cc2)cc1` (configuration not stated) reads inactive: -6.53%.
As to `CP(=O)(Nc1ccc(SC(F)(F)F)cc1)Oc1ccccc1` (configuration not stated), the inhibition was inactive: 6.9%.
On to `COc1ccccc1OP(C)(=O)Nc1c(C)cccc1C` (configuration not stated), for which the inhibition was inactive: 1.19%.
`CN1CCCCC1COC(=O)C1(O)c2ccccc2CCc2ccccc21` (configuration not stated): the inhibition was inactive: 9.68%.
`O=C(O)c1cccc(Nc2c([N+](=O)[O-])cc([N+](=O)[O-])cc2[N+](=O)[O-])c1`: the inhibition is inactive: 17.3%.
In the case of `CC1=NCCc2c1[nH]c1ccccc21.O=[N+]([O-])c1cc([N+](=O)[O-])c(O)c([N+](=O)[O-])c1`, the inhibition was inactive: -0.32%.
With `Cc1cc(C)cc(OP(C)(=O)Nc2ccc(C)cc2C)c1` (configuration not stated), the inhibition was inactive: -1.47%.
As for `CCOC(=O)c1ccc(NP(C)(=O)Oc2cc(C)cc(C)c2)cc1` (configuration not stated), the inhibition is inactive: 4.8%.
The result for `COc1ccccc1OP(C)(=O)Nc1cccc(Br)c1` (configuration not stated) reads inactive: -0.97%; that for `Cc1cc(C)cc(OP(C)(=O)Nc2ccccn2)c1` (configuration not stated), inactive: -0.67%.
Regarding `CP(=O)(Nc1cccc(Br)c1)Oc1ccccc1` (configuration not stated), the inhibition was inactive: 3.01%.
Turning to `Cc1ccc(C)c(NP(C)(=O)Oc2ccccc2)c1` (configuration not stated), the inhibition was inactive: -7.95%.
